With “n-alkyl (40% C12, 50% C14, 10% C16) dimethylbenzylammonium saccharinate [ADMBAS]” the Solubility in water was “substantially insoluble in water”.
